Test [1] has as its target T1, human CK2 holoenzyme (Homo sapiens, UniProt P68400). Kind of test: biochemical. Also on record: made in house; host or cells: Escherichia coli. The following applies: newly synthesized indeno[1,2-b]indoles.
For test [2], the target named is T1, human CK2 holoenzyme. Conditions: recombinant human CK2; pIC50 = -logIC50; compounds published before; cited from earlier work.
The mark [3] stands for this setting: Tested IC50, recombinant human CK2.
Setting [4] is: Tested pIC50, recombinant human CK2, pIC50 = -logIC50.

By UniProt entry, the sequences of proteins in these tests, tags left out.
UniProt P68400, whole entry: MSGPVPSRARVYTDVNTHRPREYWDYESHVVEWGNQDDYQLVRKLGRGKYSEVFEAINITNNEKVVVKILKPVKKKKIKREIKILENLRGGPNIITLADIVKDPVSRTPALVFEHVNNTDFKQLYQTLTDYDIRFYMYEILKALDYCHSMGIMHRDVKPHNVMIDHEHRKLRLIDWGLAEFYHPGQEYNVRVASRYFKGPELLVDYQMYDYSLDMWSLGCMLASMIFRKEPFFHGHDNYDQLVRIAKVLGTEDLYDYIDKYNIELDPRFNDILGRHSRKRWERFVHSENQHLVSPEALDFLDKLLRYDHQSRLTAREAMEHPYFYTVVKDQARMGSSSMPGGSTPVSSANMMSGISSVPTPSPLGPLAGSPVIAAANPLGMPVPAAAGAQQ

In general, IC50 refers to the point on the concentration scale where inhibition reaches its midpoint.

Turning to `CC(C)n1c2c(c3c(O)cccc31)C(=O)c1c(C#N)cccc1-2` [5f], the IC50 in test [1] (setting [3]) and in test [1] (setting [4]) was 2930 nM in each case.
As for `COc1ccc2c(c1)-c1c(c3c(O)cccc3n1C(C)C)C2=O` [5h], the IC50 in test [1] (setting [3]) was determined as 480 nM; in test [1] (setting [4]), 481 nM.
For the compound `Cc1cc(O)c2c3c(n(C(C)C)c2c1)-c1ccccc1C3=O` [5j], the “Tested pIC50” value in test [2] is reported as 5.8960.

Values taken from article PMC6982966 (Molecules, 2019).
